Measurements published in ChEMBL document CHEMBL1128467, “Novel, potent, and selective 5-HT3 receptor antagonists based on the arylpiperazine skeleton: synthesis, structure, biological activity, and comparative molecular field analysis studies” (J Med Chem, 1995).

By UniProt entry, the sequences of proteins in these tests, tags left out. Where a name states a change or a piece, a line headed by the entry shows the natural chain unless it says otherwise.
UniProt P19327, whole entry: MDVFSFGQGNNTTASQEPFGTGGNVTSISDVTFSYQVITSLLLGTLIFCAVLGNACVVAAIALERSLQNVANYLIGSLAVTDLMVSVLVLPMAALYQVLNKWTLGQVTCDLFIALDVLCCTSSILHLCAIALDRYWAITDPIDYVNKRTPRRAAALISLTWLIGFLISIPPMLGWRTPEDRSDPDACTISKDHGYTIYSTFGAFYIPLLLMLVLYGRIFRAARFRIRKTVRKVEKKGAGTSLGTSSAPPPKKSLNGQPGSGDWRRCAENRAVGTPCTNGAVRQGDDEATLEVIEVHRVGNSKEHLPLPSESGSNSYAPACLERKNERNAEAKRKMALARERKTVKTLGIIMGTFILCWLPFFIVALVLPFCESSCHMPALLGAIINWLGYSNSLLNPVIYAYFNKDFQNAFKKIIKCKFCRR
UniProt P35563, whole entry: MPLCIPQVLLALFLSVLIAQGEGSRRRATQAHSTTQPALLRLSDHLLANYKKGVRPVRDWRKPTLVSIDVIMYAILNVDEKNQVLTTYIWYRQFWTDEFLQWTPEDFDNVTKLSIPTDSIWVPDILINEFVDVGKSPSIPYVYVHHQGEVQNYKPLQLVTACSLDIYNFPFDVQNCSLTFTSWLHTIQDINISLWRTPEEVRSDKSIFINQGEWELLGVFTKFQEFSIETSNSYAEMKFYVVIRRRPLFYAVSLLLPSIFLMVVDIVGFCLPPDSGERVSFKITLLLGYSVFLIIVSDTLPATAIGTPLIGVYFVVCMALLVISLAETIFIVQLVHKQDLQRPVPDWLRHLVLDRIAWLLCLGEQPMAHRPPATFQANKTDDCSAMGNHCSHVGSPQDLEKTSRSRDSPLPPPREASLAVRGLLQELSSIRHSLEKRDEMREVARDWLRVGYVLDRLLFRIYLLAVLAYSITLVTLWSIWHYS
UniProt Q9JJ16: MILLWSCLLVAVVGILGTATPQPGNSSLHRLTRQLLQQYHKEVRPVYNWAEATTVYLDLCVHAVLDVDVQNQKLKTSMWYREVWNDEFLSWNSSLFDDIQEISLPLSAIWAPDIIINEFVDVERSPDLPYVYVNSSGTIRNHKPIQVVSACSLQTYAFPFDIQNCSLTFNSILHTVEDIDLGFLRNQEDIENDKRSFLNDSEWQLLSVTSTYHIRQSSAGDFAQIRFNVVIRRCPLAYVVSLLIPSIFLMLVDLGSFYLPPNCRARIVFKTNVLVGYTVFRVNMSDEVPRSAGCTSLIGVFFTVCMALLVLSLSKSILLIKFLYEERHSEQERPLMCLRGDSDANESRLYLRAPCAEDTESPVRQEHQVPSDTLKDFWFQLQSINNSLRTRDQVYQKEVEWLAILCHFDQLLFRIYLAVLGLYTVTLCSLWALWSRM

Assays:
[1] = target: 5-hydroxytryptamine receptor 1A (Rattus norvegicus, UniProt P19327); assay: The compound was tested for their binding affinity towards 5-hydroxytryptamine 1A receptor from rat hippocampus using [3H]8-OH-DPAT as radioligand.; format: tissue-based
[2] = target: Serotonin 3 (5-HT3) receptor (Rattus norvegicus, UniProt P35563+Q9JJ16); assay: Binding affinity for 5-hydroxytryptamine 3 receptor from rat cortex using [3H]BRL-43694 as radioligand

NCCc1c[nH]c2ccc(O)cc12 [SEROTONIN]
Ki [1]: 0.0021 µM | Ki [2]: 0.066 µM
